# From US6632449B2, “Compositions and kits comprising a defined boron compound and methods of their preparation” (The Procter & Gamble Co., priority 2001, dated 2003)
# Conditions: saturated aqueous solution acidified with hydrochloric acid, auto titrator; pH at inflection point
substance,measurement,value
sodium borate,pKa of the boron compound,about 9.2
